Target: 5-hydroxytryptamine receptor 1A (Homo sapiens) (UniProt P08908)
Conditions: Sus scrofa; Hippocampus

The chains behind the UniProt entries cited, without tags or fusion partners.
UniProt P08908, whole entry: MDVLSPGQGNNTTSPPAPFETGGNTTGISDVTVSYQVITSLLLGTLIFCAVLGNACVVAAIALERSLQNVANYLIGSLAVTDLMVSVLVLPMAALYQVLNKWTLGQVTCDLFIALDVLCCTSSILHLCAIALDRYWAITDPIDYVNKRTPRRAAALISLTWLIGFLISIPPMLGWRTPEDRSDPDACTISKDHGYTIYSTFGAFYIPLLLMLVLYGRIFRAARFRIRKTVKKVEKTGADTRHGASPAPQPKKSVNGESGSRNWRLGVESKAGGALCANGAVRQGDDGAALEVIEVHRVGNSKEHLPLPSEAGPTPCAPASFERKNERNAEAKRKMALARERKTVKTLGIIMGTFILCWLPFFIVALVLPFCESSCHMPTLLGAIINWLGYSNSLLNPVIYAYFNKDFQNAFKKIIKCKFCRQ

Q: Which pKD does the source give for `CNS(=O)(=O)Cc1ccc2[nH]cc(CCN(C)C)c2c1` here?
A: 5.5

Reference: ChEMBL document CHEMBL1126726 (J Med Chem, 1993)
